Results on 1 compound are retold here after patent US5534260A, “Percutaneous drug delivery system” (priority 1994, dated 1996).

Structures are written as SMILES. Values joined by “and” are separate entries in the source; they are usually repeats but may differ in a detail not shown here. Identical values can stand only once.

A short description of series [1]: Effect of pH on drug penetration through normal untreated hairless mouse skin (Example V A). It counts as in vitro ADME.
Series [2] in a line: Effect of pH on drug penetration through hairless mouse skin pretreated with papain (Example V B). Particulars: sigma papain 0.093 mg/ml for 24 hours. It counts as in vitro ADME. From the text:
B. Effect of pH on drug penetration through hairless mouse
skin Pretreated with sigma papain of concentration 0.093

Regarding `CC(=O)CC(c1ccccc1)c1c(O)c2ccccc2oc1=O` (centres unmarked) [Warfarin], the “J (flux)” value in series [1] (pH 5.9) was 1.66 × 10^-8 mg/cm^2 /sec; in series [1] (pH 6.6), 9.16 × 10^-9 mg/cm^2 /sec; in series [1] (pH 7.4), 4.68 × 10^-9 mg/cm^2 /sec; in series [1] (pH 8.0) it was 4.73 × 10^-9 mg/cm^2 /sec and 4.73 × 10^-8 mg/cm^2 /sec; in series [2] (pH 5.9), 1.27 × 10^-7 mg/cm^2 /sec; in series [2] (pH 6.6), 1.20 × 10^-7 mg/cm^2 /sec. The “J (flux)” value was 0.99 × 10^-7 mg/cm^2 /sec in series [2] (pH 7.4) and 1.21 × 10^-7 mg/cm^2 /sec in series [2] (pH 8.0).
